# Measurements as given in published antibiotic growth screens (doi:10.1038/s41589-023-01349-8).
# The list shows a part of the results.
# Test system: A. baumannii ATCC 17978
# Test: relative growth (fraction of control); higher = less inhibition
# Details: 50 µM
row,Structure (SMILES),relative growth
1,CC(C)C(=O)Oc1ccc(CO)cc1[C@H](CCN(C(C)C)C(C)C)c1ccccc1.O=C(O)/C=C/C(=O)O,1.07
2,COc1cccc(NC(=O)N[C@@H]2CC[C@@H](CC(=O)N3CCOCC3)O[C@@H]2CO)c1,1.09
3,CC(C)[C@@H](N)c1nc2ccccc2[nH]1,0.95
4,CO[C@@H]1CN(C)C(=O)c2cc(NC(=O)C3CCOCC3)ccc2OC[C@H](C)N(Cc2cccnc2)C[C@H]1C,0.992
5,CC(C)(Sc1cc(C(C)(C)C)c(O)c(C(C)(C)C)c1)Sc1cc(C(C)(C)C)c(O)c(C(C)(C)C)c1,1.39
6,COc1cc2c(cc1OC)CC(=O)N(CCCN(C)C[C@H]1Cc3cc(OC)c(OC)cc31)CC2.Cl,1.06
7,CC(=O)N[C@H]1C(=O)SC1(C)C,0.975
8,NCCN1CCO[C@@H](CC(=O)Nc2cc(Cl)cc(Cl)c2)C1=O,1.01
9,NNC(=O)CCc1ccccc1,0.929
10,N/C(=N/O)c1cnc2n(c1=O)CCS2,1.02
11,CN(C)CCCNC(=O)[C@@H]1c2ccccc2C(=O)N(Cc2cc(C(F)(F)F)cc(C(F)(F)F)c2)[C@H]1c1ccc(CO)cc1,0.963
12,Cc1cc(C)c2nnc(SCC(=O)O)n2n1,0.94
13,C[C@@H]1CN([C@@H](C)CO)S(=O)(=O)c2ccc(C#Cc3cccc(F)c3)cc2O[C@@H]1CN(C)S(=O)(=O)c1ccccc1F,1.28
14,CS(=O)(=O)CCNCc1ccc(-c2ccc3ncnc(Nc4ccc(OCc5cccc(F)c5)c(Cl)c4)c3c2)o1,1.14
15,C[C@@H]1CN([C@H](C)CO)S(=O)(=O)c2ccc(C#Cc3cccnc3)cc2O[C@H]1CN(C)C(=O)CN(C)C,0.936
16,NCc1cn2cc(Cl)ccc2n1,1.11
17,CCCCC(=O)C1CCCC=C1C(=O)O (stereo not given),0.881
18,CC1(C)S[C@@H]2[C@H](NC(=O)Cc3ccccc3)C(=O)N2[C@H]1C(=O)[O-].[K+],0.447
19,C[C@H]1CN([C@@H](C)CO)S(=O)(=O)c2ccc(C#Cc3ccccc3)cc2O[C@@H]1CN(C)C(=O)c1ccccn1,0.892
20,CCS(=O)(=O)Nc1ccc2c(c1)C(=O)N(C)C[C@@H](OC)[C@@H](C)CN(Cc1ccccn1)[C@H](C)CO2,0.937
21,Cc1cn2c(nc1=O)O[C@@H]1C[C@H]2O[C@@H]1CO,1.02
22,CCC(=O)c1ccc(O)cc1,0.965
23,C[C@H]1CC2C([C@@H](O)C[C@@]3(C)C2CC[C@]3(O)C(=O)COC(=O)CCC(=O)[O-])[C@@]2(C)C=CC(=O)C=C12.[Na+] (stereo not given in full),0.958
24,Oc1ccc(Cl)c2cccnc12,0.182
25,C=C1[C@H](CO)[C@@H](O)C[C@@H]1n1cnc2c(=O)[nH]c(N)nc21.O,1.03
26,Nc1ncnc(NCc2cccnc2)c1[N+](=O)[O-],0.918
27,C[C@H]1[C@H](C)CC[C@]2(C(=O)O)CC[C@]3(C)C(=CCC4[C@@]5(C)C[C@@H](O)[C@H](O)[C@@](C)(CO)C5[C@H](O)C[C@]43C)[C@H]12 (stereo not given in full),0.797
28,O=C1NC(=O)[C@@H](c2ccccc2)N1,0.89

row,Structure (SMILES),relative growth
1,COc1cc(O)c2c(=O)c(O)c(-c3ccc(O)c(O)c3)oc2c1,0.937
2,CC(=O)NO,1.11
3,O=C(CN1CCOCC1)N[C@@H]1CC[C@@H](CCn2cc(C3CCCC3)nn2)O[C@H]1CO,0.975
4,CC(=O)N[C@@H](CCC(N)=O)C(=O)O,0.968
5,COc1ccc(-c2c(O)c3c(OC)c4c(cc3oc2=O)OC(C)(C)C=C4)cc1,0.965
6,C[C@@H](O)[C@@H](O)[C@H]1CNc2[nH]c(N)nc(=O)c2N1,0.959
7,C=CC[C@H](CC(=O)NCCO)C(=O)NC[C@H](OC(=O)[C@H](CC=C)CC(=O)OC(C)(C)C)c1ccccc1,0.765
8,CC(C)(C)N1C[C@H](C(=O)O)CC1=O,1.07
9,CC(C)(Oc1ccc(Cl)cc1)C(=O)O,1.15
10,C[C@@H]1CN([C@@H](C)CO)C(=O)CCCn2nncc2CO[C@H]1CN(C)C(=O)Nc1ccc(N2CCN(C)CC2)cc1,1.01
11,COCC(=O)N1C[C@@H](C)[C@@H](OC)CN(C)C(=O)c2cc(NC(=O)c3ccc(OC)cc3)ccc2OC[C@@H]1C,1
12,O=c1[nH]cnc2c1ncn2C1CC[C@@H](CO)O1 (stereo not given in full),1.07
13,C[C@H]1CN([C@@H](C)CO)S(=O)(=O)c2ccc(C#Cc3ccc(F)cc3)cc2O[C@H]1CN(C)S(C)(=O)=O,1.03
14,Cc1nc2c(C)cc(N)cn2n1,0.971
15,Cc1ccc(CNc2ccc3c(c2)ncn3C2CCCCC2)cc1,0.804
16,CC(C)NC(=O)N[C@H]1C=C[C@@H](CC(=O)NCCN2CCCC2)O[C@@H]1CO,1.04
17,COc1ccc(NC(=O)N[C@@H]2CC[C@H](CCNC(=O)CN3CCOCC3)O[C@H]2CO)cc1,0.809
18,O=C(C[C@H]1C[C@H]2c3cc(NC(=O)c4ccc5c(c4)OCO5)ccc3O[C@H]2[C@H](CO)O1)NCCN1CCCCC1,1
19,O=C1c2ccccc2[C@](Cc2ccccc2I)(C(=O)NCc2ccccc2)[C@H](c2ccc(CO)cc2)N1C1CCCCC1,1.16
20,NCC1CCC(C(=O)O)CC1 (stereo not given),0.94
21,CCCCCCCCCCC[C@@H](C[C@@H]1OC(=O)[C@H]1CCCCCC)OC(=O)[C@H](CC(C)C)NC=O,1.08
22,C=CCNC(=O)C(=O)NC[C@H]1OCCCN1S(=O)(=O)c1ccccc1,1.12
23,CN(C)C(=O)C[C@@H]1CC[C@H](NC(=O)C2CC2)[C@H](CO)O1,0.905
24,C=C(C(=O)O[C@H]1CC=C(C)C[C@H](O)[C@H]2[C@H](C)C(=O)O[C@@H]2/C=C/1C)[C@@H]1CCC(=C)[C@@H]2C[C@H](O[C@@H]3O[C@H](COC(=O)CC(=O)O)[C@@H](O)[C@H](O)[C@H]3O)C(=C)[C@@H]2C1,1.09
25,C=CCOC(=O)[C@@H]1[C@H]2C(=O)O[C@H](c3ccccc3)[C@H](c3ccccc3)N2[C@H](c2ccc(OCCOC(=O)[C@@H]3C[C@@H]4C(=O)NCC(=O)N4[C@@H]3c3cccc(OCCO)c3)cc2)[C@@]12C(=O)Nc1ccccc12,1.16
26,CN(C)C(=O)c1cccc(-c2cccc(-c3nc(C(=O)N4CCCCC4)cc4c3[C@@H](CCO)N([S@](=O)C(C)(C)C)C4)c2)c1,1.06
27,Cn1c(=O)c2c(ncn2CC(=O)O)n(C)c1=O,1.02
